# Several values for one entry are separate records, joined by “and”; a condition that tells them apart may be missing. Equal entries are not always repeated.
# The chains behind the UniProt entries cited, without tags or fusion partners. Residues count along the entry.
# UniProt P00533, 25-1210 T790M/L858R limits assumed: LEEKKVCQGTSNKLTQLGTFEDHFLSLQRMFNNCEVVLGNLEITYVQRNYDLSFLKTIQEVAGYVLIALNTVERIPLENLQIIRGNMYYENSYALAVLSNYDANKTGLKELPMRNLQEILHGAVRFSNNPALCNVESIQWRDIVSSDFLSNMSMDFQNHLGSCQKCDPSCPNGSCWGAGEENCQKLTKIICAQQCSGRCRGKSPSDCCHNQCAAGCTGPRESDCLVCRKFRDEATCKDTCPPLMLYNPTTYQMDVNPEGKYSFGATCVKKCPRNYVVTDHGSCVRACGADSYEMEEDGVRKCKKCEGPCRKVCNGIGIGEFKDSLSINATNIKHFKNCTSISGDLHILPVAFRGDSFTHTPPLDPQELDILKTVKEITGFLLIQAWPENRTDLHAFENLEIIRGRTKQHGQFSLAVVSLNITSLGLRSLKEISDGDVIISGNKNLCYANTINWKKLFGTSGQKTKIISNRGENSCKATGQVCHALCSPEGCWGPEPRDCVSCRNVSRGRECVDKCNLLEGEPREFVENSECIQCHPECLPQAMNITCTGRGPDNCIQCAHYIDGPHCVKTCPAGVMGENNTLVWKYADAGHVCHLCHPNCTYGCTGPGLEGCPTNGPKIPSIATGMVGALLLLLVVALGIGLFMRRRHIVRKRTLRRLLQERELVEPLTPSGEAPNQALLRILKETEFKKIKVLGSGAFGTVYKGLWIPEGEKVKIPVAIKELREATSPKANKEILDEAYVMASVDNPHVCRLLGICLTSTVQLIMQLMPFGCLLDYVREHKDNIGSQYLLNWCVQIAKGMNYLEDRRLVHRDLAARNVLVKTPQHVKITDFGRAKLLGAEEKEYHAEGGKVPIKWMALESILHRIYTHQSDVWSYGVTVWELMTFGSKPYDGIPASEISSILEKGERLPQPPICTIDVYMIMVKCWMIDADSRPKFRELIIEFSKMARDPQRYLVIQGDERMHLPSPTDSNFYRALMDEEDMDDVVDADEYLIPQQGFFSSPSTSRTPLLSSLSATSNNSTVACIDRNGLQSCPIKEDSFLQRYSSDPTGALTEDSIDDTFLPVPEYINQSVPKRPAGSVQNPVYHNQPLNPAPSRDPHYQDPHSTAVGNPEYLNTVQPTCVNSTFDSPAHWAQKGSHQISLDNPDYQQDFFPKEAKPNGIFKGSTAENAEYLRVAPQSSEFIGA
# Target: Epidermal growth factor receptor [T790M,L858R] (Homo sapiens, UniProt P00533, L858R/T790M)
# Test: Inhibition Assay
# From the text: The object of this assay was to test the inventive compounds for the kinase inhibitory activity in vitro. […] Staurosporine was used as a reference molecule (or referred to as a positive control). […] The IC50 value can be obtained by the calculation of the inhibitory rates at a series of different concentrations of the tested compounds. 1.
structure (smiles),measurement,value
"CC(C)n1c(Nc2ccccc2)nc2cnc(Nc3ccc(C(=O)NN4CCN(C)CC4)cc3F)nc21 [US9096601,8-6]",IC50,46 nM and 18 nM

# Source: BindingDB's records for patent US9096601 (Cspc Zhongqi Pharmaceutical Technology (Shijiazhuang), 2015)
